Experiments:
[1] = In vitro permeation by Franz diffusion cells, mucosa with versus without steel microneedle system (AdminPatch); conditions: saturated human insulin solution in natural human saliva; acceptor 0.025 molar HEPES buffer pH 7.4; FIG. 2
[2] = Solubility of the active ingredient in the acceptor medium; assay type: physicochemical; conditions: phosphate buffer (pH 7.4) without further additives
[3] = In vitro permeation by Franz diffusion cells, dissolving microneedle system loaded with active ingredient, applied into the mucosa versus in reverse; conditions: dissolving microneedle system loaded with salbutamol sulphate; acceptor phosphate buffer pH 7.4; FIG. 7

| Substance | active ingredient flux after pretreatment with a microneedle system [1] | permeated active ingredient without pretreatment [1] | solubility in acceptor medium [2] | active ingredient flux with the microneedle system applied in the mucosa, factor higher in comparison to the system without penetration into the mucosa [3] |
| --- | --- | --- | --- | --- |
| human insulin | could be observed only after pretreatment | not possible to detect any permeated active ingredient |  |  |
| salbutamol sulphate |  |  | very easily dissolved | 2 |

Reference: US20240024647A1, “MUCOSA PERFORATION” (LTS LOHMANN THERAPIE-SYSTEME AG, priority 2020, published 2024)
